From article PMC8424648 (Cell Reports, 2021)

By UniProt entry, the sequences of proteins in these tests, tags left out. Residues count along the entry.
UniProt P41594, 21-856 T742A/S753A/T777A/I799A/A813L limits assumed: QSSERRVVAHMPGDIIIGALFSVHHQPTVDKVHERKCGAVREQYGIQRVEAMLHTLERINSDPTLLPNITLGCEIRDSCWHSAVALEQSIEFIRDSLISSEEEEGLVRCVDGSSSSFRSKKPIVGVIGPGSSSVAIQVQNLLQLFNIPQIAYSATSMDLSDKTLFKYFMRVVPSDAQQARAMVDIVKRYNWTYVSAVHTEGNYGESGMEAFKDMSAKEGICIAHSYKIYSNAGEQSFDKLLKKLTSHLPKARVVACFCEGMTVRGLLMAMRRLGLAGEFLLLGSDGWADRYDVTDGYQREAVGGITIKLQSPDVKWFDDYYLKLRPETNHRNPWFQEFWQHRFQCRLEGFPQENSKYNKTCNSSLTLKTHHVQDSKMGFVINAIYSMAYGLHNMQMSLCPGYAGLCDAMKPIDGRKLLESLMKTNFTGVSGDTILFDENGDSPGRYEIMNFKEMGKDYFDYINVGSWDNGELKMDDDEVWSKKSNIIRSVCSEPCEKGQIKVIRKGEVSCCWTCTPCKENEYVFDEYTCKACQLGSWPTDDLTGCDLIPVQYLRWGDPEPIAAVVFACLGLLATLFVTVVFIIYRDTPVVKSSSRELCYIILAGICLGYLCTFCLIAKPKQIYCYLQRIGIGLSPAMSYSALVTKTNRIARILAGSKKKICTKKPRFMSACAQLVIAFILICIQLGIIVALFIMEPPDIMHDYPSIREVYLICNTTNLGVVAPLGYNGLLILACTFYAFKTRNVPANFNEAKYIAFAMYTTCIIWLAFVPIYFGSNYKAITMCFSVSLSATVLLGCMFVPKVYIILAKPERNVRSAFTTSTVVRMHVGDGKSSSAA
UniProt P41594, 21-1212: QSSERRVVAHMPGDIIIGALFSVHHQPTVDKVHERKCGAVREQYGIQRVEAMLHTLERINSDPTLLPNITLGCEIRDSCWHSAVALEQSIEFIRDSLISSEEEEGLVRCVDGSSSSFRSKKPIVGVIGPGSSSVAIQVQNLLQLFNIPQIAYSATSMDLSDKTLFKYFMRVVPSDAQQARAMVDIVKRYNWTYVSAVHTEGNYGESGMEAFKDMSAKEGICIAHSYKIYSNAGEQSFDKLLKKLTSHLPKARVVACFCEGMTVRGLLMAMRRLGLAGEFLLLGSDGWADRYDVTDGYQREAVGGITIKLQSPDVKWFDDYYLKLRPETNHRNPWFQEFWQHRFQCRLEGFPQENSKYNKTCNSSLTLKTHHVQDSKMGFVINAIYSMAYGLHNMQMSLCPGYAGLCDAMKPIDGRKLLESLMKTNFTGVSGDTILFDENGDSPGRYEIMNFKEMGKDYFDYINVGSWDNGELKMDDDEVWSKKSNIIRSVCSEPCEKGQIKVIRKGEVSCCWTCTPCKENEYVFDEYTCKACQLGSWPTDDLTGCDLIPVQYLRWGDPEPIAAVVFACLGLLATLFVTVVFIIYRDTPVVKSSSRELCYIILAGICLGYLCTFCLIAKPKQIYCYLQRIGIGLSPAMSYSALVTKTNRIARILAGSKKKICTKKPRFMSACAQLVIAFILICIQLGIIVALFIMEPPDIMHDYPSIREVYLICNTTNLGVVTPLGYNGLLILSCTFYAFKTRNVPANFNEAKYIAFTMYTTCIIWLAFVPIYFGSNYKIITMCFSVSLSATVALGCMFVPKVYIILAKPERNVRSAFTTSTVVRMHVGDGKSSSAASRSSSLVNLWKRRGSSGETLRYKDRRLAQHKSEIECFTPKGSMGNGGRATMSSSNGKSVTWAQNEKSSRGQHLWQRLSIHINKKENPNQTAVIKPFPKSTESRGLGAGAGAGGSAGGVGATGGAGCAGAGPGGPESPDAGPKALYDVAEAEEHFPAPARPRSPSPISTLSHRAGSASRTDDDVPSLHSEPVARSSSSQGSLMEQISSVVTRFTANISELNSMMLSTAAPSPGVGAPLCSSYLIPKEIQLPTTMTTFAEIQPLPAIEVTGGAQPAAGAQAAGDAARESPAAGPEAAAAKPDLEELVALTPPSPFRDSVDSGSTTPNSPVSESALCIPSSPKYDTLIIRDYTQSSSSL

Assays:
mGlu5-5M = mGlu5-5M (Homo sapiens, UniProt P41594, A813L/I799A/S753A/T742A/T777A); test: cell-based
mGlu5 WT receptor = mGlu5 WT receptor (Homo sapiens, UniProt P41594); test: IP1 accumulation assay, mGlu5 WT; type: cell-based

Work on Cc1cccc(C#Cc2ccccc2)n1 [MPEP, 2-Methyl-6-(phenylethynyl) pyridine] yielded a pIC50 (mGlu5-5M) of 8.66 and a pIC50 (mGlu5 WT receptor) of 7.64.

pIC50: −log10 of the molar value.
